Measured values published in patent US20240325379A1, “LOW-DOSE NALTREXOL AND USES THEREOF” (AETHER THERAPEUTICS INC., priority 2021, published 2024).

The chains behind the UniProt entries cited, without tags or fusion partners.
UniProt P35372, whole entry: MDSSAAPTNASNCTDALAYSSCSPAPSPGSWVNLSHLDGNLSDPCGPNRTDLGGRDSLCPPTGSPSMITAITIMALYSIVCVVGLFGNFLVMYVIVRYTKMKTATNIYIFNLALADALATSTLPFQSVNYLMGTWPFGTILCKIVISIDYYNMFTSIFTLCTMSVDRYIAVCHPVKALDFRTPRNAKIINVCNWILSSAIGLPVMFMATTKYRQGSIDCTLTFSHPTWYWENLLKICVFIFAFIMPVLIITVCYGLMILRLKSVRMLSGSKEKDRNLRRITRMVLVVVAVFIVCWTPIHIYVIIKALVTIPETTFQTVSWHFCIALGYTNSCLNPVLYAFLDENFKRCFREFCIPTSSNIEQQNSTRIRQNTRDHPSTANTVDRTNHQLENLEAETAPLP

Biological target: MOR (Homo sapiens, UniProt P35372)
Assay: Neutral antagonism at MOR
Source text: The invention embodies usage of any of these compounds or derivatives or metabolites thereof.

Oc1ccc2c3c1O[C@H]1[C@H](O)CC[C@@]4(O)[C@@H](C2)N(CC2CC2)CC[C@]314 [6α-naltrexol]
type of antagonism: neutral antagonism
